Values of other authors, collected in article PMC10952255, “Solid‐Phase Synthesis and Biological Evaluation of Peptides ADP‐Ribosylated at Histidine” (Angewandte Chemie (Weinheim an Der Bergstrasse, Germany), 2023).

Conditions: quoted without reference; cited from earlier work

imidazole
pKa: 14.5
